Results on one compound are retold here after patent publication US9198909B1, “Materials and methods for inhibiting mamalian S-nitrosoglutathione reductase” (Indiana University Research and Technology Corporation, priority 2007, dated 2015).

The chains behind the UniProt entries cited, without tags or fusion partners. Residues count along the entry.
UniProt P11766, 2-374 limits assumed: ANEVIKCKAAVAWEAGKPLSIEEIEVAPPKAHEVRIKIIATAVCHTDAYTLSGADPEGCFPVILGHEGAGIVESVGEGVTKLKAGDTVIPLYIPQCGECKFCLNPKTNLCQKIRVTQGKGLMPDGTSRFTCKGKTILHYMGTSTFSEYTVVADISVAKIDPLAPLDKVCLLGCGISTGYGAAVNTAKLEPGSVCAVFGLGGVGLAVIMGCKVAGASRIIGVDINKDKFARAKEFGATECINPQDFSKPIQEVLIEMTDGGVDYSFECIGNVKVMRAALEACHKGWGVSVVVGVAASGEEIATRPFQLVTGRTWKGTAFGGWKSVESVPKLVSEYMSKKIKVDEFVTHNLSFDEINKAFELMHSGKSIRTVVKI

The target in one assay is GSNOR (Homo sapiens, UniProt P11766). The assay can be described thus: Dead-end inhibition studies of GSNOR. The conditions noted are these: pH 7.5, 25° C. How it is done: Referring now to Table 3, inhibition experiments were performed at 25° C. in 50 mM potassium phosphate (pH 7.5) including 0.1 mM EDTA. A minimum of five concentrations of the varied substrate and three inhibitor concentrations were used for each experiment. NADH and GSNO concentrations were held at 15 or 10 μM, respectively when present as a constant substrate in the assay. The Kis and Kii values are respectively the slope and intercept inhibition constants and are listed along with their associated standard errors. All data were fit to a competitive (C), noncompetitive (NC), or uncompetitive (UC) inhibition models. […] The KD value is the equilibrium dissociation constant of the inhibitor for binding to the GSNOR•NADH complex, obtained by measuring the changes in the fluorescence of GSNOR bound NADH with the addition of Inhibitor (λexc=350 nm; λemm^=455 nm). The dissociation constant was measured at 25° C. in 50 mM potassium phosphate pH 7.5. […]
Inhibition experiments with the GSNOR inhibitors were conducted at 25° C. in 3 ml of 50 mM potassium phosphate (pH 7.5) containing 0.1 mM EDTA. […] A minimum of three inhibitor concentrations were used in these assays and the rate of NADH and GSNO consumption was determined spectrophotometrically by following change in absorbance at 340 nm. […]

The target of another assay is GSNOR•NADH complex (Homo sapiens, UniProt P11766). The assay can be described thus: Fluorescence equilibrium binding to GSNOR•NADH complex. The following applies: 1.7 μM NADH, 2 μM GSNOR, 50 μM compound 8. How it is done: Referring now to FIG. 2, (A) Changes in the fluorescence of NADH (curve a) upon sequential addition of GSNOR (curve b) and compound 8 (curve c). To a solution of 1.7 μM NADH were added 2 μM GSNOR and 50 μM compound 8 in sequence and the fluorescence of the solution measured each time (λexc=350 nm; λemm=375-550 nm); (B) Changes in the fluorescence of NADH (curve a) upon sequential addition of GSNOR (curve b), 12-HDDA (curve c) and compound 8 (curve d). To a solution of 1.7 μM NADH were added 2 μM GSNOR, 810 μM 12-HDDA and 50 μM compound 8 in sequence and the fluorescence measured each time (λexc=350 nm; λemm=375-550 nm); (C) Binding of compound 8 to GSNOR•NADH complex. The change in fluorescence of a 1.7 μM NADH and 2 μM GSNOR mixture (λexc=350 nm; λemm=455 nm) with increasing concentrations of compound 8 was fitted to a single site binding model (equation 1; see materials and methods) using the Graphpad Prizm 4. All of the fluorescence studies were conducted at room temperature in 50 mM potassium phosphate pH 7.5.
Referring now to Table 3, inhibition experiments were performed at 25° C. in 50 mM potassium phosphate (pH 7.5) including 0.1 mM EDTA. A minimum of five concentrations of the varied substrate and three inhibitor concentrations were used for each experiment. […] The dissociation constant was measured at 25° C. in 50 mM potassium phosphate pH 7.5. […]

The next assay deals with RAW 264.7 cells. The experiment in a line: Nitroso species accumulation in RAW 264.7 cells (triiodide chemiluminescence). The protocol: Referring now to FIG. 3, briefly, RAW 264.7 cells were incubated with 500 μM GSNO alone (γ) or in presence of 33 μM Compound 6 (◯) or 7 (Δ) or 8 (▪). At indicated times or at 4 hr (in case of B), the cells were lysed and the lysate was analyzed for protein and nitroso species concentration by Bradford and chemiluminescence assay, respectively. For details, see Materials and methods. Data represents mean±SE (n=3−12).
RAW 264.7 cells were cultured in DMEM medium supplemented with 10% FBS, 200 U/ml of penicillin and 200 μg/mL of streptomycin. The cells were incubated at 37° C. in an atmosphere containing 5% CO2 and 95% air. For the experiments, 1-2×10^6 cells were plated in six-well plates a day before the experiment. On the day of the assay the medium was replaced with 3 ml of fresh medium and the cells were treated with compounds for a predetermined length of time. Following the incubation period, the cells were washed three times with PBS and scraped off the plate in 250 μl of lysis buffer (50 mM potassium phosphate pH 7.0 containing 50 mM NEM and 1 mM EDTA). Cells were lysed by sonication using a micro tip probe (three pulses of 30% duty cycle; 2 output control on a Fisher Sonicator). Cell debris was pelleted by centrifugation (10 min at 16,000 g) and the cell lysate was analyzed for protein concentration using the Bio-Rad dye-binding protein assay. The concentration of nitroso compounds in the cell lysate was determined using the triiodide based chemiluminescence method using a Sievers 280 nitric oxide analyzer. Briefly, cell lysates were treated with 15% v/v of a sulfanilamide solution (5% w/v in 0.2 M HCl) and kept at room temperature for 5 min to remove nitrite. The triodide mixture was prepared fresh every day as described earlier and kept at 60° C. in the reaction vessel. […] The amount of s-nitrosothiols in the cell lysate was determined by treating initially passing the cell lysate through a microspin column and treating the eluate with 5 mM HgCl2 before determining the nitroso compound concentration using chemiluminescence. […]

Structures are written as SMILES.

For the compound `CCOc1ccc(N(CC)C(=O)Cc2c(C(=O)O)[nH]c3ccc(Cl)cc23)cc1`, the “Kis value relative to Kii value against varied NADH” value at GSNOR is “five fold higher”. Moreover, the “type of inhibition against varied NADH” value on GSNOR (GSNO held at 10 μM) is reported as “almost uncompetitive”. In addition, on GSNOR•NADH complex, the “effect on fluorescence of GSNOR bound NADH” value is given as “quenched the NADH fluorescence”. Moreover, the “increase in the levels of nitrosylated species versus GSNO alone” value with RAW 264.7 cells (500 μM GSNO + 33 μM compound) is listed as 1.3-1.7 fold. In addition, the “difference in the levels of nitrosylated species versus GSNO alone” value with RAW 264.7 cells (500 μM GSNO + 33 μM compound, 6 hrs) was “insignificant difference”. The “maximal levels of nitroso compounds compared with the other compounds” value in the assay with RAW 264.7 cells (varied concentrations of compound) is on record as “same extent”.
